The values that follow come from patent US20220024982A1, “BICYCLIC PEPTIDE LIGANDS SPECIFIC FOR MT1-MMP” (BicycleTx Limited, priority 2018, published 2022).

The Kd is the constant that tells how readily two partners part at equilibrium. Usually Ki stands for a dissociation constant, usually derived from enzyme kinetics or from competition with a known ligand.

For one assay, the target named is T1, human MT1 MMP14 protein, hemopexin domain (Homo sapiens, UniProt P50281).
T1 construct: human MT1 MMP14 protein, hemopexin domain (obtained from Merck Millipore); purchased Merck Millipore
Nature of the assay: SPR (Biacore) binding. Particulars: Biacore 3000, 25° C., biotinylated protein on streptavidin CM5 chip. Here is the method:
Biacore experiments were performed to determine KD (nM) values of monomeric peptides binding to human MT1 MMP14 protein, hemopexin domain (obtained from Merck Millipore).
The protein was extensively desalted to remove uncoupled biotin using spin columns into PBS.
For analysis of peptide binding, a Biacore 3000 instrument was used utilising a CM5 chip (GE Healthcare). Streptavidin was immobilized on the chip using standard amine-coupling chemistry at 25° C. with HBS-N (10 mM HEPES, 0.15 M NaCl, pH 7.4) as the running buffer. Briefly, the carboxymethyl dextran surface was activated with a 7 minute injection of a 1:1 ratio of 0.4 M 1-ethyl-3-(3-dimethylaminopropyl) carbodiimide hydrochloride (EDC)/0.1 M N-hydroxy succinimide (NHS) at a flow rate of 10 μl/min. For capture of streptavidin, the protein was diluted to 0.2 mg/ml in 10 mM sodium acetate (pH 4.5) and captured by injecting 120 μl of streptavidin onto the activated chip surface. Residual activated groups were blocked with a 7 minute injection of 1 M ethanolamine (pH 8.5) and biotinylated MT1 MMP14 captured to a level of 1,200-1,800 RU. Buffer was changed to PBS/0.05% Tween 20 and a dilution series of the peptides was prepared in this buffer with a final DMSO concentration of 0.5%. The top peptide concentration was 100 nM with 6 further 2-fold dilutions. The SPR analysis was run at 25° C. at a flow rate of 50 μl/min with 60 seconds association and dissociation between 400 and 1,200 seconds depending upon the individual peptide. Data were corrected for DMSO excluded volume effects. All data were double-referenced for blank injections and reference surface using standard processing procedures and data processing and kinetic fitting were performed using Scrubber software, version 2.0c (BioLogic Software). Data were fitted using a simple 1:1 binding model allowing for mass transport effects where appropriate.
(SPR reads the build-up and loss of mass on a sensor chip optically.)
[Ac]LPP-(SEQ ID NO: 50) [BCY9949]: the Kd is 190 nM.
The same measure, in the same setting: to [Ac]LPA-(SEQ ID NO: 17) [BCY9936] belongs 38 nM; to [Ac]LPP-(SEQ ID NO: 61) [BCY9964], 35 nM.
ALPP-(SEQ ID NO: 17) [BCY3959]: binding was characterised by a dissociation constant (Kd) of 27.7 nM.
Still for that read-out and setting: under [Ac]-(SEQ ID NO: 17) [BCY9968] stands 163 nM; under [Ac]LPP-(SEQ ID NO: 49) [BCY9946], 372 nM; under [Ac]LPP-(SEQ ID NO: 47) [BCY9943], 299 nM.
Still for that read-out and setting: under [Ac]LPP-(SEQ ID NO: 57) [BCY9959] stands 5.87 nM; under [Ac]LPP-(SEQ ID NO: 59) [BCY9961], 13000 nM.
Still for that read-out and setting: to [Ac]LPP-(SEQ ID NO: 63) [BCY9966] belongs 240 nM; to [Ac]LPP-(SEQ ID NO: 52) [BCY9952], 870 nM; to [Ac]LPP-(SEQ ID NO: 46) [BCY9937], 77.8 nM.
As to [Ac]LYP-(SEQ ID NO: 77) [BCY12403], binding was characterised by a dissociation constant (Kd) of 56.1 nM.
Take [Ac]LPP-(SEQ ID NO: 65) [BCY10224]: the Kd worked out at 97.8 nM.
For the substance [Ac]LYP-(SEQ ID NO: 78) [BCY12404], the Kd came out at 27.4 nM.
Substance [Ac]LYP-(SEQ ID NO: 76) [BCY12402] came in with a Kd of 8.9 nM.
The substance [Ac]LPP-(SEQ ID NO: 60) [BCY9963] displayed a Kd of 7100 nM.
Still for that read-out and setting: to [Ac]LPP-(SEQ ID NO: 55) [BCY9955] belongs 73.5 nM; to [Ac]LPP-(SEQ ID NO: 58) [BCY9960], 72.7 nM; to [Ac]LPP-(SEQ ID NO: 53) [BCY9953], 296 nM.
Still for that read-out and setting: under [Ac]EYP-(SEQ ID NO: 57) [BCY12405] stands 14.7 nM; under [Ac]APP-(SEQ ID NO: 17) [BCY9934], 36.9 nM; under [Ac]LPP-(SEQ ID NO: 48) [BCY9945], 1360 nM.
On the same count and under the same terms, to ALPP-(SEQ ID NO: 17)-A [BCY10288] belongs 52.5 nM; to [Ac]LPP-(SEQ ID NO: 54) [BCY9954], 28.3 nM; to [Ac]LPP-(SEQ ID NO: 64) [BCY10223], 400 nM.
The substance [Ac]LYP-(SEQ ID NO: 57) [BCY12401] displayed a Kd of 10.8 nM.
The same measure, in the same setting: to [Ac]LAP-(SEQ ID NO: 17) [BCY9935] belongs 39.2 nM; to [Ac]LPP-(SEQ ID NO: 17) [BCY9933], 30.7 nM; to [Ac]LPP-(SEQ ID NO: 56) [BCY9957], 304 nM.
The same measure, in the same setting: under [Ac]LPP-(SEQ ID NO: 51) [BCY9951] stands 364 nM; under [Ac]LPP-(SEQ ID NO: 19) [BCY9938], 80.9 nM.

The next assay addresses MT1-MMP Hemopexin domain (PEX) (Homo sapiens, UniProt P50281). Nature of the assay: MT1-MMP fluorescence polarisation competition binding assay. The following applies: Plate 1; read-out: Plate 1 Ki (FP-comp). The source says:
Due to their high affinities to the MT1-MMP Hemopexin domain (PEX), the fluoresceinated derivatives of 17-69-07 and 17-69-12 (denoted as 17-69-07-N040, 17-69-07-N041 and 17-69-12-N004) can be used for competition experiments (using FP for detection)
Here, a pre-formed complex of PEX with the fluorescent PEX-binding tracer is titrated with free, non-fluoresceinated bicyclic peptide. Since all 17-69-based peptides are expected to bind at the same site, the titrant will displace the fluorescent tracer from PEX. Dissociation of the complex can be measured quantitatively, and the Kd of the competitor (titrant) to the target protein determined. The advantage of the competition method is that the affinities of non-fluoresceinated bicyclic peptides can be determined accurately and rapidly.
Concentrations of tracer are usually at the Kd or below (here, 1 nM), and the binding protein (here, hemopexin of MT1-MMP) is at a 15-fold excess such that >90% of the tracer is bound. Subsequently, the non-fluorescent competitor bicyclic peptide (usually just the bicycle core sequence) is titrated, such that it displaces the fluorescent tracer from the target protein. The displacement of the tracer is measured and associated with a drop in fluorescence polarisation. The drop in fluorescence polarisation is proportional to the fraction of target protein bound with the non-fluorescent titrant, and thus is a measure of the affinity of titrant to target protein.
In certain experiments, collagen binding tracers (i.e. 17-88-N006 and 17-88-226-N002) were used in an analogous manner to the hemopexin binding tracers.
The raw data is fit to the analytical solution of the cubic equation that describes the equilibria between fluorescent tracer, titrant, and binding protein. The fit requires the value of the affinity of fluorescent tracer to the target protein, which can be determined separately by direct binding FP experiments (see previous section). The curve fitting was performed using Sigmaplot 12.0 and used an adapted version of the equation described by Zhi-Xin Wang (FEBS Letters 360 (1995) 111-114).
Background: Polarisation of emitted light reports the rotation of a fluorescent probe.
On to [Ac]LPP-(SEQ ID NO: 74) [BCY11158], for which the Ki was found to be 124 nM.
On the same count and under the same terms, to [Ac]LPP-(SEQ ID NO: 66) [BCY11149] belongs 80 nM; to [Ac]LPP-(SEQ ID NO: 72) [BCY11155], 459 nM; to [Ac]LPP-(SEQ ID NO: 67) [BCY11150], 396 nM.
Still for that read-out and setting: under [Ac]LPY-(SEQ ID NO: 17) [BCY11148] stands 45 nM.
Still for that read-out and setting: under [Ac]LPP-(SEQ ID NO: 73) [BCY11163] stands 54 nM.

The assay is the same for the next values; noted with them: tracer 17-69-07-N040 (hemopexin binding tracer); read-out: Kd (nM ± 95% CI).
Turning to A-(SEQ ID NO: 79)-A [17-121-00], the Kd was 678 nM.
On the same count and under the same terms, under A-(SEQ ID NO: 109)-A [17-126-07] stands 198 ± 85.3 nM; under KVQ-(SEQ ID NO: 131)-A [17-126-38-T01], 162 nM.
Same read-out and setting: under A-(SEQ ID NO: 135)-A [17-126-11] stands 971 nM; under A-(SEQ ID NO: 87)-A [17-129-06], 566 nM; under A-(SEQ ID NO: 114)-A [17-126-19], 199 nM.
With SQN-(SEQ ID NO: 100)-A [17-129-19-T02], the dissociation constant Kd worked out at 458 nM.
Regarding REE-(SEQ ID NO: 99)-A [17-129-18-T01], the Kd came out at 138 ± 44 nM.
In the case of A-(SEQ ID NO: 84)-A [17-129-03], the Kd came out at 536 ± 126 nM.
In the case of QES-(SEQ ID NO: 99)-A [17-129-18-T03], the dissociation constant Kd worked out at 202 nM.
On the same count and under the same terms, under N-(SEQ ID NO: 96)-NA [17-129-15-T01] stands 278 nM.
Same read-out and setting: under MAN-(SEQ ID NO: 100)-A [17-129-19-T01] stands 754 nM.
As for A-(SEQ ID NO: 4)-A [17-116-01], the Kd came out at 352 nM.
Still for that read-out and setting: to A-(SEQ ID NO: 116)-A [17-126-21] belongs 131 nM.
On the same count and under the same terms, under A-(SEQ ID NO: 132)-PDVA [17-126-39-T01] stands 187 nM.
Same read-out and setting: to GPH-(SEQ ID NO: 125)-A [17-126-31-T01] belongs 295 nM; to A-(SEQ ID NO: 122)-A [17-126-27], 143 nM.
For the substance A-(SEQ ID NO: 138)-A [17-122-03], the Kd was > 378 nM.
The same measure, in the same setting: to A-(SEQ ID NO: 104)-YSE [17-129-23-T01] belongs 54.8 nM; to A-(SEQ ID NO: 91)-A [17-129-10], 781 nM; to SQT-(SEQ ID NO: 82)-A [17-129-01-T01], 499 nM.
The same measure, in the same setting: under ISSYG-(SEQ ID NO: 82)-A [17-129-01-T04] stands 705 nM.
Take A-(SEQ ID NO: 111)-A [17-126-09]: the Kd stood at 165 nM.
A-(SEQ ID NO: 103)-LTE [17-129-22-T01]: the Kd turned out to be 53.7 nM.

Staying with this assay, now noted: tracer 17-69-07-N041 (hemopexin binding tracer); read-out: Kd (nM ± 95% CI).
Regarding A-(SEQ ID NO: 3)-A [17-111-02], the Kd amounted to 2300 nM.
Same read-out and setting: to A-(SEQ ID NO: 2)-A [17-111-01] belongs 1800 nM.

The same assay, now with this note: tracer 17-88-226-N002 (collagen binding tracer); read-out: Kd (nM ± 95% CI).
As to (B-Ala)-Sar10-ALPP-(SEQ ID NO: 19), the Kd was found to be 89.5 ± 10.1 nM.
On the same count and under the same terms, under “Sar3-ALPP-(SEQ ID NO: 16) [Sar3-A-(17-120-09-T03) HArg9]” stands 30.9 ± 10 nM; under Ac-(B-Ala)-Sar10-ALPP-(SEQ ID NO: 17), 43.9 ± 15.5 nM.

The same assay, now with this note: tracer 17-88-N006 (collagen binding tracer); read-out: Kd (nM ± 95% CI).
Take APPP-(SEQ ID NO: 45)-A [17-120-35-T01]: the Kd is 23.3 ± 9.48 nM.
Same read-out and setting: under APPP-(SEQ ID NO: 13)-A [17-120-09-T01] stands 53.8 ± 13.3 nM; under PLPP-(SEQ ID NO: 32)-A [17-120-22-T02], 46.1 ± 26.5 nM.
As to ALPP-(SEQ ID NO: 27)-A [17-120-17-T01], the Kd was determined as 157 nM.
For the substance AEPA-(SEQ ID NO: 35)-A [17-120-25-T01], the Kd was 194 ± 162 nM.
Still for that read-out and setting: to QISP-(SEQ ID NO: 13)-A [17-120-09-T02] belongs 55.2 nM; to AVEP-(SEQ ID NO: 34)-A [17-120-24-T01], 126 nM; to APAP-(SEQ ID NO: 13)-A [17-120-09-T12], 62.2 nM.
The same measure, in the same setting: under RLPP-(SEQ ID NO: 41)-A [17-120-31-T02] stands 68.3 nM; under APPP-(SEQ ID NO: 31)-A [17-120-21-T01], 113 nM; under APSP-(SEQ ID NO: 21)-A [17-120-11-T01], 612 ± 760 nM.
Regarding APLP-(SEQ ID NO: 13)-A [17-120-09-T11], the Kd amounted to 44.2 nM.
Still for that read-out and setting: to HPPP-(SEQ ID NO: 13)-A [17-120-09-T08] belongs 37.5 nM; to ASPP-(SEQ ID NO: 36)-A [17-120-26-T01], 598 nM.
